In the test the target is T1, human μ-opioid receptor (Homo sapiens, UniProt P35372).
T1 construct: host or cells: CHO-K1
The test is described as follows: cell-based. An excerpt: To assess the activation of the μ-opioid receptor through the recruitment of the β-arrestin signaling pathway, we used a PathHunter® eXpress β-Arrestin GPCR chemiluminescent assay (DiscoverX) following the manufacturer instructions. In this system, the human μ-opioid receptor is fused to a small fragment of β-galactosidase (PK) and co-expressed in cells expressing a fusion protein of β-arrestin and the complementary fragment of β-galactosidase (EA). Activation of the μ-opioid receptor stimulates binding of β-arrestin to the PK-tagged receptor allowing the complementation of the two enzyme fragments of β-galactosidase. This action leads to an activation of the enzyme that can be measured using a chemiluminescent reagent resulting in luminescence, which is proportional to the recruitment of β-arrestin. […] The resulting luminescence was determined with a microplate reader Synergy HT (Biotek).
The fitting of the data to the correlation was assessed by its corresponding coefficient of determination (R^2), using GraphPad Prism (San Diego, CA, USA).

By UniProt entry, the sequences of proteins in these tests, tags left out.
UniProt P35372, whole entry: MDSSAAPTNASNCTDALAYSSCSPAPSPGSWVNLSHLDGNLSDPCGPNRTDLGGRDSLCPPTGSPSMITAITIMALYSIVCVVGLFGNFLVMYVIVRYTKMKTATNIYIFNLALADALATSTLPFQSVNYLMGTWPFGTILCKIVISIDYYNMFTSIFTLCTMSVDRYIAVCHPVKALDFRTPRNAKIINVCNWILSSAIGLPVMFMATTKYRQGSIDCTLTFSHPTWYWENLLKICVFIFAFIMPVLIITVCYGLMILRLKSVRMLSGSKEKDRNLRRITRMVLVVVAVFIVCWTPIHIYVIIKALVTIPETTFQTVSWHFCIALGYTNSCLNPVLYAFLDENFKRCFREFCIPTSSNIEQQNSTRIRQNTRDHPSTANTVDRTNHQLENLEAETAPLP

Structures are written as SMILES.

Our source for the EC50 values is paper PMC5253357, “Racemic Salsolinol and its Enantiomers Act as Agonists of the μ-Opioid Receptor by Activating the Gi Protein-Adenylate Cyclase Pathway” (Frontiers in Behavioral Neuroscience, 2017).

As for `CC(C)C[C@@H](NC(=O)[C@H](Cc1ccccc1)NC(=O)CNC(=O)[C@@H](C)NC(=O)[C@@H](N)Cc1ccc(O)cc1)C(=O)O` [DADLE, [D-Ala^2, D-Leu^5]-Enkephalin, reference compound], the EC50 was 1000 nM.

By EC50 is commonly meant the concentration giving half of the maximal effect.
